# Ab-95 light chain CDR variants: yeast mating affinities

The target is the same throughout: PDVDLGDISGINAS, from the HR2 region of SARS-CoV-2 spike.

The variants keep the heavy chain, the linker and the frameworks of Ab-95 (scFv order VH, three GGGGS repeats, VL).
VH: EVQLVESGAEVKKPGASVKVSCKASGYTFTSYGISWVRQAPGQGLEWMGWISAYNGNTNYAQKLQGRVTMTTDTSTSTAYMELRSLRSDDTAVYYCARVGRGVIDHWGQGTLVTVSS
VL: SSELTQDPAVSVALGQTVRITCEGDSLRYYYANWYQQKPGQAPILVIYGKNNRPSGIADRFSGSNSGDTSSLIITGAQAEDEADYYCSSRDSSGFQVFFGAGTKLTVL

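The parent was found by panning a naive human phage display library on the peptide. The library (AAYL52) carries one to three amino acid substitutions per variant, with no insertions or deletions. The scFvs were displayed on barcoded MATa yeast, the peptide on MATalpha yeast. Binding brings cells together so that they mate, and sequencing counts the barcode pairs among the diploids. A regression on co-assayed BCL2-family reference pairs converts the normalised counts of each replicate to an apparent Kd. There are three technical replicates.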

The parent's light chain CDRs are EGDSLRYYYAN, GKNNRPS, SSRDSSGFQVF; each variant's own CDRs replace them letter for letter.
Affinities are written as log10 Kd with Kd in nM; a lower number is a better binder.
Replicates are averaged; those with no signal do not enter the mean.
Where no diploid with the target was found in that replicate, the entry reads "n.d.": below detection, most likely a poor binder, though not proof of it.
Parent in this assay: reference entry 2.31, copy in this library 2.25.
Three control strains display no target. For library AAYL52, 28% of the pairings with them gave a signal, with a median of 3.91 and one signal in twenty below 2.90, so weak values seen in few replicates may be background. For each scFv, signals with the empty controls are counted beside the result, with their mean in brackets.

CDR-L1,CDR-L2,CDR-L3,"replicates, log10 nM",mean log10 Kd (nM),control signals
EGDILRYIYAN,GKNNRPS,SSRDSSGFQVE,3.44 / 2.97 / 4.37,3.60,3/9 (4.49)
EGDSLLYYYAN,GKNNRPT,SSRDSSGFQVF,2.34 / 2.27 / 1.76,2.13,3/9 (4.43)
EGDGLLYYYAN,GKNNRPS,SSRDCSGFQVF,4.20 / n.d. / n.d.,4.20,3/9 (4.54)
EGDSGRYYYAN,GKNNRPS,SLPDSSGFQVF,4.60 / n.d. / 2.83,3.72,2/9 (3.39)
ETDSLRYYYAN,GKNNRPS,SSRDSSAFSVF,4.28 / 4.55 / 4.50,4.44,2/9 (3.79)
EGDSLRYYYAN,GKINRPA,WSRDSSGFQVF,5.65 / 4.85 / 4.40,4.97,2/9 (4.69)
NGDSLRYYYAN,GYNNRWS,SSRDSSGFQVF,3.50 / n.d. / 3.91,3.70,3/9 (3.66)
EGDSLYYYYAP,GKNNRPS,SSRDSSGFQKF,4.01 / n.d. / 3.99,4.00,0/9
EGDRLRYPYAQ,GKNNRPS,SSRDSSGFQVF,3.22 / 3.73 / 2.87,3.27,0/9
EGDSLRTYYAN,GKNNRPS,SMRDSSGSQVF,2.47 / 1.54 / 1.46,1.82,0/9
VGDSLRGYYAN,PKNNRPS,SSRDSSGFQVF,n.d. / n.d. / n.d.,n.d.,6/9 (3.65)
EGDSLWYYYAN,GHNNRPS,FSRDSSGFQVF,3.79 / 3.60 / 2.83,3.41,4/9 (4.30)
EGDSLYYYYAN,GKNNLPS,SSRDSSGFQMF,3.55 / 3.40 / 3.27,3.41,3/9 (4.15)
EGDSLRYYYAN,GKNNRPS,SSRDSDGFGVF,3.25 / 4.22 / n.d.,3.74,3/9 (3.58)
EGDSLRYYVAT,GKENRPS,SSRDSSGFQVF,3.41 / n.d. / n.d.,3.41,2/9 (4.47)
EGDSLRYFYAN,WKNNSPS,SSRDSSGFQVF,n.d. / 4.22 / n.d.,4.22,1/9 (3.93)
EGDSCTYYYAN,GKNNRPS,SSRDISGFQVF,3.70 / 3.40 / n.d.,3.55,3/9 (3.28)
EGDSLRYYYAH,GPNQRPS,SSRDSSGFQVF,2.26 / 2.72 / 2.06,2.35,2/9 (4.46)
EGDSLSYYYIN,GKNNRPS,SSRDSSGFFVF,3.60 / 3.05 / n.d.,3.33,3/9 (2.89)
EGDSLRYYYEY,NKNNRPS,SSRDSSGFQVF,n.d. / n.d. / 3.65,3.65,1/9 (3.29)
EGDSLRYYYAN,GKNHRPS,SSRDDDGFQVF,2.99 / 3.86 / 4.10,3.65,1/9 (4.24)
EGKSLRYYYAA,GKNNRPS,SSRDSSGFQVF,n.d. / 5.38 / 3.56,4.47,3/9 (4.02)
EGNSLRNYYAN,GKNNRPF,SSRDSSGFQVF,1.68 / 1.57 / 1.16,1.47,0/9
EGDSLRQYYAH,GKNNRPH,SSRDSSGFQVF,2.53 / 3.51 / 3.38,3.14,0/9
EGDSLRYNYAN,GKNNRPS,SSRDTSGFQVF,1.05 / 0.97 / 0.33,0.78,4/9 (4.30)
EHDSLRYYWAG,GKNNRPS,SSRDSSGFQVF,n.d. / n.d. / n.d.,n.d.,2/9 (4.14)
EGDSLRYYYAN,GKNNRPS,SSRDVSGFQNF,2.52 / 2.85 / 2.72,2.70,1/9 (3.54)
EWRSLRYRYAN,GKNNRPS,SSRDSSGFQVF,3.19 / 3.84 / n.d.,3.52,3/9 (3.64)
EGDVLRYYYAN,GKNIRPS,SSRDSEGFQVF,n.d. / n.d. / n.d.,n.d.,4/9 (2.64)
EGDSLRYYYAG,GKNNRTG,SSRDSSGFQVF,n.d. / 5.64 / n.d.,5.64,1/9 (3.57)
EGDSLAYYYAN,GKNKRPS,SSLDSSGFQVF,3.35 / 3.75 / 3.28,3.46,3/9 (3.44)
FGDSLIYYYAN,GKNNRPS,SQRDSSGFQVF,2.94 / 4.13 / n.d.,3.54,3/9 (3.84)
EGDSLRFYYAW,YKNNRPS,SSRDSSGFQVF,5.48 / n.d. / n.d.,5.48,4/9 (3.92)
EGDSLRNYYAG,GKNNRPS,SSSDSSGFQVF,3.80 / 4.17 / n.d.,3.99,2/9 (4.55)
EGDSLRTYYAN,GKNNRCS,SSRDSSGFQVF,4.74 / 2.60 / n.d.,3.67,2/9 (3.80)
EGDSLRYYYAN,GKNNRPS,SSRDSSGFEYF,3.60 / 3.35 / n.d.,3.48,2/9 (4.37)
EGDSKRYYYAN,GKNNRPS,SDRDSSGVQVF,n.d. / 4.24 / n.d.,4.24,0/9
EGRSLRYYYAN,GKNNRPS,HSRDSSGSQVF,4.10 / 2.31 / 2.96,3.12,1/9 (4.23)
EWDSLRYYYAN,GKNNRGS,SSRDSEGFQVF,n.d. / n.d. / n.d.,n.d.,1/9 (3.03)
EGDSLRYCYSN,GKNNRPS,SSRDSCGFQVF,2.49 / 2.77 / 2.83,2.70,1/9 (5.62)
ESDPLRYYYAN,GKNNRPS,SSRDSSGFSVF,n.d. / n.d. / n.d.,n.d.,1/9 (3.84)
EGDSLIYYCAN,GKNNRPS,HSRDSSGFQVF,4.04 / n.d. / n.d.,4.04,2/9 (3.83)
EGDSLRYYYAN,GKNNRPS,SVRTSSGFSVF,3.11 / 2.16 / 3.45,2.91,6/9 (4.23)
EGDSLRYYYAN,GKNNRPS,LSRDSSGFQKE,3.57 / 4.29 / n.d.,3.93,1/9 (2.98)
EHDSLRYNYAN,GKNNRPS,SSRDASGFQVF,0.92 / 0.82 / 0.14,0.63,7/9 (4.30)
EGDSLRRYFAN,GKTNRPS,SSRDSSGFQVF,3.97 / n.d. / 3.00,3.48,1/9 (4.06)
EGDSLRYYYAN,GKNNRPS,SSRISSGYQVV,2.66 / 2.57 / 3.16,2.79,6/9 (4.22)
EVDRLRTYYAN,GKNNRPS,SSRDSSGFQVF,2.56 / 2.35 / 1.39,2.10,2/9 (4.00)
EGDSLRYYYAN,GKNNPWT,SSRDSSGFQVF,5.41 / 2.80 / n.d.,4.11,2/9 (3.90)
EGDSLRYYYAN,TKNNRPS,SSRDSWRFQVF,n.d. / 4.20 / n.d.,4.20,1/9 (5.19)
EGDWLRYYYAN,GKCHRPS,SSRDSSGFQVF,n.d. / n.d. / n.d.,n.d.,1/9 (3.29)
EGDSLRYYYAS,GKNNCPS,SSRDSSSFQVF,n.d. / 4.04 / n.d.,4.04,1/9 (3.18)

Values reported by Engelhart et al. 2022, doi:10.1038/s41597-022-01779-4 (FLAb copy).